Data on one substance can be found in US20230174624A1, “FERRITIN VARIANTS WITH INCREASED STABILITY, COMPLEXATION ABILITY AND TRANSFERRIN RECEPTOR AFFINITY” (CELLIS AG, priority 2020, published 2023).

The nature of data set [1]: Native gel after storage in a freezer (-80 degrees Celsius) and thawing. The format is physicochemical. Particulars: ferritin-dox. From the text:
Storage conditions for wild type ferritin are limited.

In the next data set the test system is siRNA. Put plainly: siRNA association with ferritin (gel). The format is binding. Particulars: independently from pH conditions. How it is done:
FIG. 8: Picture of gel showing RNA association with Q11E ferritin mutant that is not observed in case of wild-type protein (wt).
1 ml reaction containing 2 mg Ft and 4 ug siRNA in DPBS, pH lowered to values as indicated (2.5, 3.2, 4.4, 5.6 and 6.8, respectively). Samples were incubated 15 min in RT, then NaOH was added to adjust pH to neutral (pH 7). Non-associated free siRNA was removed by 4 centrifugation steps on Amicons with 100 kDa cut-off.

Turning to “WT: human wild-type heavy chain ferritin (SEQ ID NO. 1) [reference compound]”, the “stability of cages after storage” value in data set [1] was “causes an increase of cages aggregation”. Besides, the “association with siRNA” value in the data set with siRNA is on record as “no association with siRNA was observed”.
